Laboratory results as given in publication PMC12678819, “Targeting bacterial kinases as a strategy to counteract antibiotic resistance” (2025).

Protein sequences, listed by entry. Tags and fused reporters are not part of them. Lines headed by an entry give the natural chain unless they say otherwise; changes in a name come on top. Residues count along the entry.
UniProt P15056, 457-717 limits assumed: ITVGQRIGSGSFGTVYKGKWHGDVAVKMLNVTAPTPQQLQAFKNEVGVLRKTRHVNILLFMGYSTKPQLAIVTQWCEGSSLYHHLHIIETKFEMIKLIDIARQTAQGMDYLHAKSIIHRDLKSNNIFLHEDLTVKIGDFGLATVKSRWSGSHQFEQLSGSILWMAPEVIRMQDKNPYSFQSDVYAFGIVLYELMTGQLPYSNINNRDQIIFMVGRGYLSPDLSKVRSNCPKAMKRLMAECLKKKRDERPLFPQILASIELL
UniProt P54764, 621-882 limits assumed: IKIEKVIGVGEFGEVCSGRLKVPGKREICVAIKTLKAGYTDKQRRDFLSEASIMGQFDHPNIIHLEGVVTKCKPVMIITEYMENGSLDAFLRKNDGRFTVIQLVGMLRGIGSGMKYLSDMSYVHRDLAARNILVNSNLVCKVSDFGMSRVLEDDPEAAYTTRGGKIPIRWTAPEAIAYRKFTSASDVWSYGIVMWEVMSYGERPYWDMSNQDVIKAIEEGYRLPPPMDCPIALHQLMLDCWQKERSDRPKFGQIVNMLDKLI
UniProt Q16566, 46-300 limits assumed: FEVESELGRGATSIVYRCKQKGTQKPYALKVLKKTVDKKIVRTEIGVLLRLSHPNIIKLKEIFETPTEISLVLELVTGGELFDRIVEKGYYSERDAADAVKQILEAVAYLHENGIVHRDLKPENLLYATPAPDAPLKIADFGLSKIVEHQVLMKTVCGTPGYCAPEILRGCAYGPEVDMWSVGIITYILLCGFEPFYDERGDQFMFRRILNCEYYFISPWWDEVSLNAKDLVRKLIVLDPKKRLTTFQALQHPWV
UniProt O94804, 18-317 limits assumed: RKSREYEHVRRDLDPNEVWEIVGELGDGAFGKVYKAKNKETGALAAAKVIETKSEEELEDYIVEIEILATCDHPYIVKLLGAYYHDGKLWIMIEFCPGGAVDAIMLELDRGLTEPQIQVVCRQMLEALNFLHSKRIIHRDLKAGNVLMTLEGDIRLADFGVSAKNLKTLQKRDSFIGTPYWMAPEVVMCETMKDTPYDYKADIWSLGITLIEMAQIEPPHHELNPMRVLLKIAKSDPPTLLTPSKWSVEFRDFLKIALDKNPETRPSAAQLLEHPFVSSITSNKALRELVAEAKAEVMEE
UniProt O96013, 291-591 limits assumed: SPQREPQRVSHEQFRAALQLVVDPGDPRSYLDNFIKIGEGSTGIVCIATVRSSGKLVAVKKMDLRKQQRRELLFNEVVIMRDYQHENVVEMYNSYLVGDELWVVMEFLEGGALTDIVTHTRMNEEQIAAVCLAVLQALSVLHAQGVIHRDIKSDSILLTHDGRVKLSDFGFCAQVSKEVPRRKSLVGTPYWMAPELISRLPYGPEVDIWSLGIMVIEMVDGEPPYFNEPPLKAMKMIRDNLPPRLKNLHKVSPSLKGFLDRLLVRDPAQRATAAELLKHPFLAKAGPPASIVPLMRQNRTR
UniProt P68400, 39-324 limits assumed: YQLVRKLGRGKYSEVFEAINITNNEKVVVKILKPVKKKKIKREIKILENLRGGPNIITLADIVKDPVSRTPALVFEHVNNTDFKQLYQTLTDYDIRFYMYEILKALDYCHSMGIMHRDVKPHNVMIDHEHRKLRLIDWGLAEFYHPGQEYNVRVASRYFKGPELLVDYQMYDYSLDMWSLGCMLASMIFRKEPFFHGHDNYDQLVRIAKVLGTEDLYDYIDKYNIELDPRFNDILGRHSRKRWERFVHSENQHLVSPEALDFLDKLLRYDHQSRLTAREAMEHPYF
UniProt P55201: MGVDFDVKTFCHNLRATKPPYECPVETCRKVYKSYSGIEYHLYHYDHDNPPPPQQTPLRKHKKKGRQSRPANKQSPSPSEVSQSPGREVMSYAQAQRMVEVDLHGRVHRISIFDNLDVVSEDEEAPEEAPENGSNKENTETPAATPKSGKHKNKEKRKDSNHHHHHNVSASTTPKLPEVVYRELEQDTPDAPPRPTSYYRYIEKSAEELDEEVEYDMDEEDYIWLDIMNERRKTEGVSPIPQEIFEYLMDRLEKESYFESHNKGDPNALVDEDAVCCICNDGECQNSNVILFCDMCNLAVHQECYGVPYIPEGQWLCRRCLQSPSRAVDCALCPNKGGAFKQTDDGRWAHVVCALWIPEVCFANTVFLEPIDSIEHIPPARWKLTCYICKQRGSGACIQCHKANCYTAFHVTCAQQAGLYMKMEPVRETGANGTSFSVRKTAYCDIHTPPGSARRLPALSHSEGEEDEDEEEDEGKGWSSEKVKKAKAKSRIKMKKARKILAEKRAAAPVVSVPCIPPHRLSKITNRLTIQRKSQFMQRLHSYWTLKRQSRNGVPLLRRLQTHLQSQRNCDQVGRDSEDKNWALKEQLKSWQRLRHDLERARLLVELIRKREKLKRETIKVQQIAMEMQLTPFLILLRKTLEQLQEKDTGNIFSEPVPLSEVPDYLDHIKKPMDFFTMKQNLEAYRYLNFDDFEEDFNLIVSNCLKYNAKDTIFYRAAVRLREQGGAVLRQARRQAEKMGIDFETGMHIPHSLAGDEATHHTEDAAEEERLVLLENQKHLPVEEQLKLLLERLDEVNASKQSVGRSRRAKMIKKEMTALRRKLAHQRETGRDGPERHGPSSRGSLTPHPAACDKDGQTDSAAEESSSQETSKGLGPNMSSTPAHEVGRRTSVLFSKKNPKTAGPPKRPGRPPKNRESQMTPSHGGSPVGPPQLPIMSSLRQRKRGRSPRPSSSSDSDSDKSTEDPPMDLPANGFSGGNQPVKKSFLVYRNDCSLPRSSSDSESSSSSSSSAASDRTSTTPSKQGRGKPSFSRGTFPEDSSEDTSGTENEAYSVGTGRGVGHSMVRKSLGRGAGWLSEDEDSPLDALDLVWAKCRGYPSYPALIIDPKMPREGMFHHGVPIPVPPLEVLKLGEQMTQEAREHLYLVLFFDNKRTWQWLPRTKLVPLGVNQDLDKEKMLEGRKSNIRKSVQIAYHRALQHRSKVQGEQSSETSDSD
UniProt Q9H2G2, 19-320 limits assumed: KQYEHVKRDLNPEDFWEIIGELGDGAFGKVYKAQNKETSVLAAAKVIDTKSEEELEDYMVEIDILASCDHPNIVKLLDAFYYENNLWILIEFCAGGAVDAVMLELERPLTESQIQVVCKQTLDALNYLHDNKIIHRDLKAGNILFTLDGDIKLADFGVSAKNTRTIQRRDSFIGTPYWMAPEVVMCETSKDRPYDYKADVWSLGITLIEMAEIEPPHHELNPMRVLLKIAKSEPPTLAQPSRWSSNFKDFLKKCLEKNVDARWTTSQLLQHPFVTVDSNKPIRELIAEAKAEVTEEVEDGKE
UniProt O00444, 2-275 limits assumed: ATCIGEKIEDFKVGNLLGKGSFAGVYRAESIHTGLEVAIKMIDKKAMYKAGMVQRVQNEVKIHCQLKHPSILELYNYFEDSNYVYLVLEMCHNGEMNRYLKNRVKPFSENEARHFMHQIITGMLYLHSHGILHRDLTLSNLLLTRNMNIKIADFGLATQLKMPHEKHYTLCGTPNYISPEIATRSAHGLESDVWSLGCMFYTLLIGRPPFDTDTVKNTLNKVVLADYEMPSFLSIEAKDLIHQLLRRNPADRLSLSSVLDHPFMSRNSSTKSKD
UniProt Q2M2I8, 46-315 limits assumed: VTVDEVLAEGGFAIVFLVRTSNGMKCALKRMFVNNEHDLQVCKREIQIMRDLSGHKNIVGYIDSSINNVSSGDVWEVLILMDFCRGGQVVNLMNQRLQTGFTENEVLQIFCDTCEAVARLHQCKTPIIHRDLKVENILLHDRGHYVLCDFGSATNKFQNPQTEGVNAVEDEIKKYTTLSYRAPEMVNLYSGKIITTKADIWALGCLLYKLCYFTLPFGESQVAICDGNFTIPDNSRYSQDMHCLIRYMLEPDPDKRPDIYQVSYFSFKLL
UniProt Q9Y6E0, 36-286 limits assumed: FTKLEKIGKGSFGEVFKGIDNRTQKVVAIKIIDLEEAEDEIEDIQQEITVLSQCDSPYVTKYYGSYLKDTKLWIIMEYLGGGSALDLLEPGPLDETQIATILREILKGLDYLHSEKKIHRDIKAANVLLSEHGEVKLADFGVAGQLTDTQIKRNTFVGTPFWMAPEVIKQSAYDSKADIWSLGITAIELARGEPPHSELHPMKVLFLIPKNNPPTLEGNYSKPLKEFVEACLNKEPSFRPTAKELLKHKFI
UniProt Q8TD08, 13-304 limits assumed: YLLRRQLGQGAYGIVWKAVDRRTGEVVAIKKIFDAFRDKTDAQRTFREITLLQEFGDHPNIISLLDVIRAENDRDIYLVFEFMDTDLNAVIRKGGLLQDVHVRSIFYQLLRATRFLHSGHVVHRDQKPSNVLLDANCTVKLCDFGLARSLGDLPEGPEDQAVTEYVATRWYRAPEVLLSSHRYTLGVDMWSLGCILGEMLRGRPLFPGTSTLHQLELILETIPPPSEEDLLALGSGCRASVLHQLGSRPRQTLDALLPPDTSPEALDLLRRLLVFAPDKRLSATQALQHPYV
UniProt Q00532, 4-287 limits assumed: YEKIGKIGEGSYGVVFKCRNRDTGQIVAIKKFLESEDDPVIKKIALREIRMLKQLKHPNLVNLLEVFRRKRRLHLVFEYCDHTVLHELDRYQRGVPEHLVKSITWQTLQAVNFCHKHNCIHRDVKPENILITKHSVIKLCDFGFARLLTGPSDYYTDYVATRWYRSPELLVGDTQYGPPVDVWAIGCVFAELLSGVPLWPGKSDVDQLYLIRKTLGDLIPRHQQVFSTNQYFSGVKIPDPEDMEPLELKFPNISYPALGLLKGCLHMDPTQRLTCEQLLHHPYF
UniProt P27448, 56-307 limits assumed: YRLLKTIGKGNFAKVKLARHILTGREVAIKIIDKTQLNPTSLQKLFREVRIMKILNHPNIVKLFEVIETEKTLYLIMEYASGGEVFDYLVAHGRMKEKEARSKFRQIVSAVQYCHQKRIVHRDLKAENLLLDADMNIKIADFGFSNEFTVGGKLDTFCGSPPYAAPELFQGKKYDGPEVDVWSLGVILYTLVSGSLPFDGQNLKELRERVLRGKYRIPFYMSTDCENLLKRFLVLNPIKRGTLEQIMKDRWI
UniProt P16083: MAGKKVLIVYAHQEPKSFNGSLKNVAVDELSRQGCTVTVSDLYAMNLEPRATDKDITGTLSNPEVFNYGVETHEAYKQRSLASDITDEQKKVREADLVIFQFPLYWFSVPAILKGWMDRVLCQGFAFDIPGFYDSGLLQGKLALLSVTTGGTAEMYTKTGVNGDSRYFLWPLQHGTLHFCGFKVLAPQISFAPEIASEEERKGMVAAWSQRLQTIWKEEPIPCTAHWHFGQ
UniProt P11309, whole entry, looked up: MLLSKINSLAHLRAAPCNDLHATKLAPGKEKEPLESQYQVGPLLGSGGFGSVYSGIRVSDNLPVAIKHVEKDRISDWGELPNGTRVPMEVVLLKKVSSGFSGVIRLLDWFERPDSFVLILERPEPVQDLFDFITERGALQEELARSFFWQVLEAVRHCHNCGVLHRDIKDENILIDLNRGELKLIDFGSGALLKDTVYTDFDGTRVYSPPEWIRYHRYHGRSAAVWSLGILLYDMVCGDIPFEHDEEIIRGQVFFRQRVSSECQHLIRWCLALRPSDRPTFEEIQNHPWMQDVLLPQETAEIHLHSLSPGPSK
UniProt P49137, 64-325 limits assumed: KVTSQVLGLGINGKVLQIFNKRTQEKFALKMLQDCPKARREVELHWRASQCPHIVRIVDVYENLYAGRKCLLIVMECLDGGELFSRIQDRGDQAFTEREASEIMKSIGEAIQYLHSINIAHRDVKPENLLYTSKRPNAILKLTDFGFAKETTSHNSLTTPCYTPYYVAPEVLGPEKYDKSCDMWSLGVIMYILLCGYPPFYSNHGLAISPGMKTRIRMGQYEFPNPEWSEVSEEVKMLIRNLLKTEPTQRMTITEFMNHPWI
UniProt O94768, 25-329 limits assumed: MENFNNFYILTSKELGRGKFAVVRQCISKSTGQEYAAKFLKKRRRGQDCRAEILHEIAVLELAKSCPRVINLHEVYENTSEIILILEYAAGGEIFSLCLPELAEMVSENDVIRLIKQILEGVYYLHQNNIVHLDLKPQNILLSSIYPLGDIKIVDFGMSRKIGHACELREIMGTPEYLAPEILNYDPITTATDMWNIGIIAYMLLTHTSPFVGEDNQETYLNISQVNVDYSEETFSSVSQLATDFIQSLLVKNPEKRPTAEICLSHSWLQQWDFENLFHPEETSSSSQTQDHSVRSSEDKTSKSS
UniProt Q9UEE5, 61-321 limits assumed: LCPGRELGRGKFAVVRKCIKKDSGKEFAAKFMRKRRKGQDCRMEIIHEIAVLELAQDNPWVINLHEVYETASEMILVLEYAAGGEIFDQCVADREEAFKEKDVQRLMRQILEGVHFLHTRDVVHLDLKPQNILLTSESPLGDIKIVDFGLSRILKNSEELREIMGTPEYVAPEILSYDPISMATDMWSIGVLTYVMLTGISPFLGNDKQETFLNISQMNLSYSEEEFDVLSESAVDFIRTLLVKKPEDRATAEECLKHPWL
UniProt O14936, 12-276 limits assumed: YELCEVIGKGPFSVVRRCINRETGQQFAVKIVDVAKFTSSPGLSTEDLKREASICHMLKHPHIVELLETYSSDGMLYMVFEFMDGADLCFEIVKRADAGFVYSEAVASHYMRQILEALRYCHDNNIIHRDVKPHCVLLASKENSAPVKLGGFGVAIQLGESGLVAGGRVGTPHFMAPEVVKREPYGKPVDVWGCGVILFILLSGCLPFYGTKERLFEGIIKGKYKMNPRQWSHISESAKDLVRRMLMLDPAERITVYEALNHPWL

Experiments:
Assay in all cases: DSF kinase panel
Conditions in all cases: 10 μM
EPHA5 = EPHA5 (Homo sapiens, UniProt P54756)
BRAF = BRAF (Homo sapiens, UniProt P15056)
EPHA4 = EPHA4 (Homo sapiens, UniProt P54764)
CAMK4 = CAMK4 (Homo sapiens, UniProt Q16566)
BRD4 = BRD4 (Homo sapiens, UniProt O60885)
FLT1 = FLT1 (Homo sapiens, UniProt P17948)
LOK = LOK (Homo sapiens, UniProt O94804)
PAK4 = PAK4 (Homo sapiens, UniProt O96013)
BMPR2 = BMPR2 (Homo sapiens, UniProt Q13873)
CK2a1 = CK2a1 (Homo sapiens, UniProt P68400)
GAK = GAK (Homo sapiens, UniProt O14976)
CAMK1D = CAMK1D (Homo sapiens, UniProt Q8IU85)
BRPF1 = BRPF1 (Homo sapiens, UniProt P55201)
SLK = SLK (Homo sapiens, UniProt Q9H2G2)
TIF1 = TIF1 (Homo sapiens, UniProt O15164)
PLK4 = PLK4 (Homo sapiens, UniProt O00444)
MYT1 = MYT1 (Homo sapiens, UniProt Q99640)
DCAMKL1 = DCAMKL1 (Homo sapiens, UniProt O15075)
AAK1 = AAK1 (Homo sapiens, UniProt Q2M2I8)
JNK3 = JNK3 (Homo sapiens, UniProt P53779)
MST3 = MST3 (Homo sapiens, UniProt Q9Y6E0)
MAPK15 = MAPK15 (Homo sapiens, UniProt Q8TD08)
MARK4 = MARK4 (Homo sapiens, UniProt Q96L34)
CDKL1 = CDKL1 (Homo sapiens, UniProt Q00532)
MARK3 = MARK3 (Homo sapiens, UniProt P27448)
NQO2 = NQO2 (Homo sapiens, UniProt P16083)
SRC = SRC (Homo sapiens, UniProt P12931)
WNK1 = WNK1 (Homo sapiens, UniProt Q9H4A3)
PIM1 = PIM1 (Homo sapiens, UniProt P11309)
MAPKAPK2 = MAPKAPK2 (Homo sapiens, UniProt P49137)
VRK1 = VRK1 (Homo sapiens, UniProt Q99986)
NEK7 = NEK7 (Homo sapiens, UniProt Q8TDX7)
DRAK2 = DRAK2 (Homo sapiens, UniProt O94768)
GPRK5 = GPRK5 (Homo sapiens, UniProt P34947)
STLK3 = STLK3 (Homo sapiens, UniProt Q9UEW8)
MAP2K7 = MAP2K7 (Homo sapiens, UniProt O14733)
CK1d = CK1d (Homo sapiens, UniProt P48730)
DYRK1A = DYRK1A (Homo sapiens, UniProt Q13627)
OSR1 = OSR1 (Homo sapiens, UniProt O95747)
DRAK1 = DRAK1 (Homo sapiens, UniProt Q9UEE5)
ULK1 = ULK1 (Homo sapiens, UniProt O75385)
CASK = CASK (Homo sapiens, UniProt O14936)

## C[C@@H](O)CCn1cc(-c2c(Cl)cnc3[nH]ccc23)nn1
EPHA5
  ΔTm EPHA5: -0.6 °C
BRAF
  ΔTm BRAF: 1.0 °C
EPHA4
  ΔTm EPHA4: -0.5 °C
CAMK4
  ΔTm CAMK4: 0.3 °C
BRD4
  ΔTm BRD4: 0.5 °C
FLT1
  ΔTm FLT1: 3.9 °C
LOK
  ΔTm LOK: -1.8 °C
PAK4
  ΔTm PAK4: 2.8 °C
BMPR2
  ΔTm BMPR2: 5.1 °C
CK2a1
  ΔTm CK2a1: 1.2 °C
GAK
  ΔTm GAK: 3.3 °C
CAMK1D
  ΔTm CAMK1D: 1.0 °C
BRPF1
  ΔTm BRPF1: -1.4 °C
SLK
  ΔTm SLK: -0.4 °C
TIF1
  ΔTm TIF1: -0.3 °C
PLK4
  ΔTm PLK4: 4.2 °C
MYT1
  ΔTm MYT1: 0.8 °C
DCAMKL1
  ΔTm DCAMKL1: 0.1 °C
AAK1
  ΔTm AAK1: 6.0 °C
JNK3
  ΔTm JNK3: 1.4 °C
MST3
  ΔTm MST3: -1.9 °C
MAPK15
  ΔTm MAPK15: 3.9 °C
MARK4
  ΔTm MARK4: 1.7 °C
CDKL1
  ΔTm CDKL1: 0.0 °C
MARK3
  ΔTm MARK3: -0.7 °C
NQO2
  ΔTm NQO2: -0.7 °C
SRC
  ΔTm SRC: 1.1 °C
WNK1
  ΔTm WNK1: -0.3 °C
PIM1
  ΔTm PIM1: 0.5 °C
MAPKAPK2
  ΔTm MAPKAPK2: -0.5 °C
VRK1
  ΔTm VRK1: -0.5 °C
NEK7
  ΔTm NEK7: -0.7 °C
DRAK2
  ΔTm DRAK2: 1.7 °C
GPRK5
  ΔTm GPRK5: 0.1 °C
STLK3
  ΔTm STLK3: 1.1 °C
MAP2K7
  ΔTm MAP2K7: -0.8 °C
CK1d
  ΔTm CK1d: 3.8 °C
DYRK1A
  ΔTm DYRK1A: 2.1 °C
OSR1
  ΔTm OSR1: 2.7 °C
DRAK1
  ΔTm DRAK1: 4.6 °C
ULK1
  ΔTm ULK1: 2.2 °C
CASK
  ΔTm CASK: -0.1 °C

## OCCCn1cc(-c2c(Cl)cnc3[nH]ccc23)nn1
EPHA5
  ΔTm EPHA5: -0.4 °C
BRAF
  ΔTm BRAF: 1.2 °C
EPHA4
  ΔTm EPHA4: 0.3 °C
CAMK4
  ΔTm CAMK4: 0.6 °C
BRD4
  ΔTm BRD4: 1.7 °C
FLT1
  ΔTm FLT1: 3.9 °C
LOK
  ΔTm LOK: -1.3 °C
PAK4
  ΔTm PAK4: 2.7 °C
BMPR2
  ΔTm BMPR2: 5.6 °C
CK2a1
  ΔTm CK2a1: 1.4 °C
GAK
  ΔTm GAK: 2.3 °C
CAMK1D
  ΔTm CAMK1D: 1.4 °C
BRPF1
  ΔTm BRPF1: -0.5 °C
SLK
  ΔTm SLK: -0.2 °C
TIF1
  ΔTm TIF1: -0.5 °C
PLK4
  ΔTm PLK4: 3.8 °C
MYT1
  ΔTm MYT1: -0.5 °C
DCAMKL1
  ΔTm DCAMKL1: 0.6 °C
AAK1
  ΔTm AAK1: 6.0 °C
JNK3
  ΔTm JNK3: 1.4 °C
MST3
  ΔTm MST3: -0.9 °C
MAPK15
  ΔTm MAPK15: 4.0 °C
MARK4
  ΔTm MARK4: 2.3 °C
CDKL1
  ΔTm CDKL1: 0.3 °C
MARK3
  ΔTm MARK3: 2.4 °C
NQO2
  ΔTm NQO2: -0.5 °C
SRC
  ΔTm SRC: -0.1 °C
WNK1
  ΔTm WNK1: -0.2 °C
PIM1
  ΔTm PIM1: 0.9 °C
MAPKAPK2
  ΔTm MAPKAPK2: 0.0 °C
VRK1
  ΔTm VRK1: 0.1 °C
NEK7
  ΔTm NEK7: -0.3 °C
DRAK2
  ΔTm DRAK2: 2.2 °C
GPRK5
  ΔTm GPRK5: 1.1 °C
STLK3
  ΔTm STLK3: 1.1 °C
MAP2K7
  ΔTm MAP2K7: -0.3 °C
CK1d
  ΔTm CK1d: 4.5 °C
DYRK1A
  ΔTm DYRK1A: 1.7 °C
OSR1
  ΔTm OSR1: 0.4 °C
DRAK1
  ΔTm DRAK1: 4.9 °C
ULK1
  ΔTm ULK1: 2.8 °C
CASK
  ΔTm CASK: 0.2 °C
